Measured values from US20240336629A1, “Tricyclic Derivatives Useful As PARP7 Inhibitors” (JACOBIO PHARMACEUTICALS CO., LTD., priority 2021, published 2024).

By UniProt entry, the sequences of proteins in these tests, tags left out. Residues count along the entry.
UniProt Q7Z3E1, 456-657 limits assumed: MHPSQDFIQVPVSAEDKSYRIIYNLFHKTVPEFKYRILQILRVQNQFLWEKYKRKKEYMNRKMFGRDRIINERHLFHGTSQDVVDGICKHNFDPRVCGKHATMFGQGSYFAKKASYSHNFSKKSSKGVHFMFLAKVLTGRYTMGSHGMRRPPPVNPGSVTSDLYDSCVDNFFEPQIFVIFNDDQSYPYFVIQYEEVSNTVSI

Each compound was assayed against PARP7 enzyme (Homo sapiens (Human), UniProt Q7Z3E1) (assay: PARP7 enzymatic experiment (HTRF assay)). Conditions: read-out: PARP7 Enzyme (IC50 μM), 4PL fit.
Assay type: biochemical

Row | SMILES | IC50
1 | C[C@@H](COCCC(=O)N1CCN2c3ncc(C(F)(F)F)cc3OCCC2C1)Nc1cn[nH]c(=O)c1C(F)(F)F (single isomer, unassigned) [Compound 54A] | 0.000726 µM
2 | C[C@@H](COCCC(=O)N1CCN2c3ncc(C(F)(F)F)cc3OCCC2C1)Nc1cn[nH]c(=O)c1C(F)(F)F (single isomer, unassigned) [Compound 54B] | 0.00179 µM
3 | CC1CC2CN(C(=O)CCOC[C@H](C)Nc3cn[nH]c(=O)c3C(F)(F)F)CCN2c2ncc(C(F)(F)F)cc2O1 (single isomer, unassigned) [Compound 62A] | 0.00153 µM and 0.00177 µM
4 | CC1CC2CN(C(=O)CCOC[C@H](C)Nc3cn[nH]c(=O)c3C(F)(F)F)CCN2c2ncc(C(F)(F)F)cc2O1 (single isomer, unassigned) [Compound 62C] | 0.00182 µM and 0.00132 µM

These compounds were tested on lung cancer cell line H1373 (high expression of PARP7) (assay: Lung cancer cell proliferation inhibition experiment (CTG method)). Conditions: read-out: H1373 (IC50 μM); H1373 cells, 144 hrs incubation, Cell Titer Glo.
Assay type: cell-based

Row | SMILES | IC50
5 | CC(=O)c1cnc2c(c1)OCC[C@@H]1CN(C(=O)CCOC[C@H](C)Nc3cn[nH]c(=O)c3C(F)(F)F)CCN21 (single isomer, unassigned) | 0.328 µM
6 | C[C@@H](COCCC(=O)N1CCN2c3ncc(Cl)cc3OCC[C@@H]2C1)Nc1cn[nH]c(=O)c1C(F)(F)F (single isomer, unassigned) | 0.0289 µM
7 | C[C@@H](COCCC(=O)N1CCN2c3ncc(Cl)cc3OCC[C@H]2C1)Nc1cn[nH]c(=O)c1C(F)(F)F (single isomer, unassigned) | 0.615 µM
8 | Cc1cnc2c(c1)OCC[C@H]1CN(C(=O)CCOC[C@H](C)Nc3cn[nH]c(=O)c3C(F)(F)F)CCN21 (single isomer, unassigned) | 0.104 µM
9 | C[C@@H](COCCC(=O)N1CCN2c3ncc(C(F)(F)F)cc3NCCC2C1)Nc1cn[nH]c(=O)c1C(F)(F)F (single isomer, unassigned) [Compound 37B] | 0.086 µM
10 | C[C@@H](COCCC(=O)N1CCN2c3ncc(C(F)(F)F)cc3OCCC2C1)Nc1cn[nH]c(=O)c1C(F)(F)F (single isomer, unassigned) [Compound 54A] | 0.0332 µM
11 | C[C@@H](COCCC(=O)N1CCN2c3ncc(C(F)(F)F)cc3OCCC2C1)Nc1cn[nH]c(=O)c1C(F)(F)F (single isomer, unassigned) [Compound 54B] | 0.802 µM
12 | CC1CC2CN(C(=O)CCOC[C@H](C)Nc3cn[nH]c(=O)c3C(F)(F)F)CCN2c2ncc(C(F)(F)F)cc2O1 (single isomer, unassigned) [Compound 62B] | 0.329 µM

Where “and” joins values, the source holds several entries; their conditions need not be identical. Identical values can stand only once.
